For data set [1], the system named is LPS-stimulated macrophage RAW 264.7. The experiment in a line: Scavenging of superoxide anion in LPS-stimulated macrophage RAW 264.7 (2-OH-E+ by LC-MS). The format is cell-based. As to conditions: LPS-stimulated RAW 264.7. The method, then: The antioxidant activity (the ability to scavenge superoxide anion) of the synthesized benzofuran amidated derivative is evaluated by a cell model.
After phagocytosis of bacteria, senescent denatured cells, immune complexes or oxidized low-density lipoproteins, mammalian macrophages cells enter a functional activation state, with enhanced intracellular lysosomal function and increased ROS levels, and they secrete and synthesize inflammatory cytokines. Lipopolysaccharide (LPS) is the main component of the cell wall of Gram-negative bacteria and is the main material basis for its pathogenesis; it can stimulate the production of monocytes/macrophages and release a large amount of reactive oxygen species (mainly including O2^− and H2O2), inflammatory factors such as nitric oxide (NO), IL-1β and Tumor necrosis factor-α (TNF-α) that are involved in the acute phase response of the body, causing inflammatory damage to the body. The present invention utilizes the LPS-stimulated macrophage model to evaluate the antioxidant activity of benzofuran amidated derivatives to scavenge superoxide anion at the cellular level.
13.1 Preparation of Reagents and Standard Solutions
(2) LPS: accurately weigh the appropriate amount of LPS, and prepare a sample stock solution of 0.1 g/ml, with DMEM and store at −20° C. for later use.
(3) Probe Stabilizer DTPA: Weigh accurately the amount of DTPA, prepare a 20 mM sample stock solution with DMSO, dilute to 100 µM with PB, and store at 4° C. for use.
(4) HE: Prepare a 20 mmol/L stock solution by dissolving the probe with dimethyl sulfoxide under anaerobic and dark conditions, and store at −80° C. in the dark. Take it out before use, prepare a 10 μmol/L solution with DMEM, place it on ice and store it in the dark.
LPS stimulated macrophage RAW 264.7 modeling and administration:
(1) RAW 264.7 cells are cultured in Petri dishes (60 mm), 4 mL per dish, and incubated in a 5% CO2 incubator with saturated humidity at 37° C. The experiment is divided into blank group, model group and drug-administered group. The model group and the drug-administered group are respectively added with the modeling agent LPS (prepared with DMEM) and the optimal LPS concentration is 0.1 μg/mL, while the modeling time is 24 h; take vitamin E as a positive control.
(2) After 12 h of cell culture, the supernatant is discarded, and the test drug with a final concentration of 10 μM containing 0.1 μg/mL LPS medium is added, and two parallel holes are provided for each sample to be tested.
(3) Continue to culture in a cell culture incubator for 24 h, the supernatant is discarded, the cells are washed with PBS, and added to DMEM medium containing the probe HE (10 μM) and cultured in the dark for 30 min.
(4) The cells are then washed twice with ice-cold PBS/(100 μM) DTPA, then added 1 mL PBS/(100 μM) DTPA, before the cells are divided into two with a spatula (700 μL and 300 μL) and collected into EP tubes; then they are centrifuged at 13,000 rpm for 10 min at 4° C., the supernatant is removed, and the cell pellet are stored at −80° C. for future use. The first one contains 700 μL cell solution for the determination of LC-MS content of the test substance 2-OH-E^+, while the second one contains 300 μL cell solution for the determination of cell protein concentration.
13.3 LC-MS Analysis Conditions, Sample Pretreatment and Data Processing Methods
(1) LC-MS chromatographic conditions: instrument: Agilent 1100 series LC-QMS; column: Agilent Zorbax SB-Aq (4.6×50 mm, 1.8 μm); mobile phase: 0.1% formic acid-water (phase A); 0.1% formic acid-acetonitrile (B); gradient conditions: 0˜2 min, 5%˜30% B; 2˜5 min, 30% B; 5˜7 min, 30%˜100% B; 7˜10 min, 100% B; flow rate: 1 mL/min; MS condition: positive ion mode, SIM (SIM1: 1.2˜3 min [M+H]^+288 (galantamine); 3˜10 min [M]^+330 (2-OH-E^+)); cracking voltage: 120 V; nitrogen flow rate: 10.0 L/min; […]

For data set [2], the system named is Normal hepatocyte LO2. Put plainly: Inhibition of uric acid production in xanthine-modelled hepatocyte cell model. The format is cell-based. As to conditions: xanthine modeling. The procedure:
The effect of benzofuran amidated derivatives on uric acid production is evaluated using a cell model.
(2) Experimental procedure: Normal hepatocyte LO2 are inoculated in a 6-well plate (plate density 1×10^6 cells/mL), and cell experiments are performed after 4 hours of plating. The experiment is divided into blank group, model group and drug-administered group; the model group and the drug-administered group are respectively added with the modeling agent xanthine (prepared with DMSO as a stock solution), while the blank group is added with the same volume of DMSO, and the Febuxostat is used as a positive control.
(3) Pre-treatment of mass spectrometry: take 100 μL of the medium collected, add MeOH 400 μL, CHCl3 100 μL and H2O 300 μL, perform vortex mixing, and centrifuging at 20000 g for 10 min, then take the upper layer for concentration and dry. Reconstitute H2O 100 μL, and add 10 μL of internal standard substance galantamine (1.25 μM) (final concentration 0.125 μM), centrifuge at 13,000 rpm for 10 min, and take the upper layer for LC-MS analysis.

From patent publication US11021454B2, “Type of aryl benzofuran amidated derivative and medical use thereof” (CHINA PHARMACEUTICAL UNIVERSITY, priority 2016, dated 2021) come the findings set out here.

The structures appear in SMILES notation.

Take `COC(=O)[C@H](Cc1ccc(O)c(O)c1)NC(=O)/C=C/c1ccc(O)c2oc(-c3ccc(O)c(O)c3)cc12` [Compound 5a, Methyl (S,E)-3-(3,4-dihydroxyphenyl)-2-(3-(2-(3,4-dihydroxyphenyl)-7-hydroxybenzofuran-4-yl)acrylamido)propanoate]: the “scavenging effect on superoxide anion compared to the model group” value in data set [1] is recorded as “obvious scavenging effect”. Consider `COC(=O)[C@@H](Cc1ccc(O)c(O)c1)NC(=O)/C=C/c1ccc(O)c2oc(-c3ccc(O)c(O)c3)cc12` [Compound 5b], for which the “inhibitory effect on the formation of uric acid in hepatocyte model” value in data set [2] is on record as “significant inhibitory effect”. For the same compound, the “scavenging effect on superoxide anion compared to the model group” value in data set [1] is “obvious scavenging effect”. `COC(=O)[C@H](C)NC(=O)/C=C/c1ccc(O)c2oc(-c3ccc(O)c(O)c3)cc12` [Compound 5c, Methyl (E)-(3-(2-(3,4-dihydroxyphenyl)-7-hydroxybenzofuran-4-yl)acryloyl)-L-alaninate]: the “scavenging effect on superoxide anion compared to the model group” value in data set [1] was “obvious scavenging effect”.

As for `O=C(/C=C/c1ccc(O)c2oc(-c3ccc(O)c(O)c3)cc12)N[C@H](Cc1ccc(O)c(O)c1)C(=O)O` [Compound 6b, (R,E)-3-(3,4-dihydroxyphenyl)-2-(3-(2-(3,4-dihydroxyphenyl)-7-hydroxybenzofuran-4-yl)acrylamido) propanoic Acid], the “scavenging effect on superoxide anion compared to the model group” value in data set [1] is given as “obvious scavenging effect”. For `O=C(/C=C/c1ccc(O)c2oc(-c3ccc(O)c(O)c3)cc12)N[C@@H](Cc1ccccc1)C(=O)O` [Compound 6d, (E)-(3-(2-(3,4-dihydroxyphenyl)-7-hydroxybenzofuran-4-yl)acryloyl)-L-phenylalanine], the “scavenging effect on superoxide anion compared to the model group” value in data set [1] is “obvious scavenging effect”. With `O=C(/C=C/c1ccc(O)c2oc(-c3ccc(O)c(O)c3)cc12)N[C@@H](Cc1ccc(O)cc1)C(=O)O` [Compound 6e, (E)-(3-(2-(3,4-dihydroxyphenyl)-7-hydroxybenzofuran-4-yl)acryloyl)-L-tyrosine], the “inhibitory effect on the formation of uric acid in hepatocyte model” value in data set [2] was “significant inhibitory effect”. In addition, the “scavenging effect on superoxide anion compared to the model group” value in data set [1] is “obvious scavenging effect”.
